Earlier results in US20150257983A1, “FLUORIDE-CONTAINING VARNISH FOR APPLICATION TO THE TOOTH SURFACE” (Ivoclar Vivadent AG, priority 2012, published 2015).

Conditions: in water, 25° C.

## Sodium hexafluorophosphate monohydrate
  Solubility (g/100 g H2O): 103 g/100 g H2O
  Solubility (mol/kg H2O): 5.5 mol/kg H2O
